Test results: PubChem BioAssay AID624171 (National Center for Advancing Translational Sciences (NCATS), 2012)
This is a selection; strong and weak results do not stand in their true shares. Activity calls are given as the source filed them. Calls follow the shape of the dose curve; as a rule, active = well fitted activation curve with a large enough effect; inconclusive = small, poorly fitted or top-dose-only effect; inactive = flat fitted curve, though single readings scatter.

test: qHTS of Nrf2 Activators; settings: AREc32 ARE-luciferase reporter (MCF7-derived line), luminescence, 24 h; at 46.1 µM (top of the series) unless noted; also: % of control where 0% means no effect; nearly all actives have a fitted effect of over 65% in size
From the text: Many diseases have some form of oxidative stress injury and ties to inflammation, causing a host of problems for the patient. The antioxidant response element (ARE) plays an important role in alleviating the harmful effects of oxidative stress. The antioxidant response element (ARE) is a transcriptional regulatory element involved in the activation of genes coding for a number of antioxidant proteins and detoxifying enzymes. These enzymes work in concert to protect tissues from oxidative insults and chemical toxicities in human hepatocytes and immune cells. The protective effects of ARE activation are primarily triggered through Nrf2 (NF-E2-related factor) binding to and activating AREs. It is known that Nrf2 controls the production of over 250 antioxidant and detoxification proteins (Hu et al., 2006), thereby protecting tissues by increasing cellular antioxidant content and suppressing inflammatory signaling pathways. The transcription factor Nrf2 is a central link between oxidative chemicals, such as phenolic antioxidants and electrophilic compounds, and the activation of ARE. Nrf2 levels are constitutively low as a consequence of its interaction with Keap1, which targets its degradation (Zipper and Mulcahy, 2002). Electrophiles react with key cysteine residues in Keap1, releasing Nrf2 and allowing its translocation to the nucleus. Once within the nucleus, Nrf2 complexes with coactivators such as p300, and binds to the AREs to induce gene transcription of cytoprotective enzymes, resulting in the prevention of toxicity. Activation of Nrf2 protects tissues by increasing cellular antioxidant content and suppressing inflammatory signaling pathways. Identifying novel and potent Nrf2 activators by using the AREc32 cell line to detect ARE activation by small molecules will lead to the identification and development of probes to study protective pathways in multiple tissues. These specific probes are essential to study the ARE pathway, and eventually to determine whether this pathway does activate genes that could protect against a host of diseases, including cardiovascular diseases, obesity, diabetes, Alzheimer's, and Parkinson's disease.
This project's aim is to identify novel and potent Nrf2 activators by using the AREc32 cell line to detect ARE activation by small molecules, which will lead to the identification and development of probes to study the ARE pathway.
NIH Chemical Genomics Center [NCGC]
NIH Molecular Libraries Probe Centers Network [MLPCN]
Assay Submitter (PI): Curtis Klaassen, University of Kansas Medical Center
5 uL of 1000 cells/well of AREc32_Fluc cells are seeded into 1536-well plate in OPTI-MEM medium with 5% FBS. The plates are incubated overnight at 37 deg C with 5% CO2. Then through pin tool transfer, 23 nL of compounds are added to each well before a 24 hr incubation at 37 deg C with 5% CO2. After the addition of 2.5 uL of Steady-Glo. the plates are kept at RT for 30 min, before they are read on the ViewLux.

Compound	activation
CSc1ccccc1C(=O)NCC1(N2CCCCC2)CCCCC1	inactive: -0.678%
Cc1cccc(NC2(C#N)CCN(Cc3ccccc3)CC2)c1	inactive: 0.22%
O=C(NCC1(N2CCCCC2)CCCCC1)c1ccc(=O)[nH]c1	inactive: -0.0733%
O=C(NCC1(N2CCCCC2)CCCCC1)c1cccs1	inactive: -0.292%
CCCCn1nnnc1C(CC)N1CCC(n2c(=O)[nH]c3ccccc32)CC1 (stereo unspecified)	inactive: 0.337%
CCCCn1nnnc1C(c1cccs1)N1CCC(n2c(=O)[nH]c3ccccc32)CC1 (stereo unspecified)	inactive: 0.704%
COc1ccc(C(=O)NCC2(N3CCCCC3)CCCCC2)cc1	inactive: 0.589%
CC(C)(C)OC(=O)N1CCC(N(C(=O)c2ccccc2)c2ccc(F)cc2)CC1	inactive: -0.776%
COc1ccc(C(=O)NCC2(N3CCCCC3)CCCCC2)c(OC)c1OC	inactive: -1.12%
CCC(c1nnnn1C1CCCC1)N1CCC(n2c(=O)[nH]c3ccccc32)CC1 (stereo unspecified)	inactive: 0.19%
CCOC(=O)N1CCC(Nc2ccc(OC)cc2)CC1	inactive: -0.476%
CCCCn1nnnc1C(c1ccc(OC)cc1)N1CCC(n2c(=O)[nH]c3ccccc32)CC1 (stereo unspecified)	inactive: 4.2%
N#CC1(Nc2ccccc2)CCN(Cc2ccccc2)CC1	inactive: -0.523%
O=C(NCC1(N2CCCCC2)CCCCC1)c1ccc(Cl)s1	inactive: 0.238%
O=C(OC1CN2CCC1CC2)C1c2ccccc2Oc2ccccc21 (stereo unspecified)	inactive: 0.341%
O=c1[nH]c2ccccc2n1C1CCN(C(c2cc3ccccc3o2)c2nnnn2C2CCCCC2)CC1 (stereo unspecified)	inactive: -1.2%
COc1ccc(Cl)cc1C(=O)NCC1(N2CCOCC2)CCCCC1	inactive: -0.153%
O=C1C(O)=C([N+](=O)[O-])C(=O)C(O)=C1[N+](=O)[O-]	inactive: 0.288%
O=C(NCC1(N2CCOCC2)CCCCC1)c1cc2ccccc2o1	inactive: 0.79%
O=C(NCC1(N2CCCCC2)CCCCC1)c1ccc(Cl)nc1	inactive: -0.424%
O=c1[nH]c2ccccc2n1C1CCN(C(c2ccccc2OC(F)(F)F)c2nnnn2C2CCCCC2)CC1 (stereo unspecified)	inactive: -0.701%
Cc1cc(C)cc(N(C(=O)c2ccccc2)C2CCN(C(=O)OC(C)(C)C)CC2)c1	inactive: 3.11%
O=P1(N(CCCl)CCCl)SCCCS1	inactive: 2.54%
CCCCn1nnnc1C(c1cc2ccccc2o1)N1CCC(n2c(=O)[nH]c3ccccc32)CC1 (stereo unspecified)	inactive: -3.3%
CCCCOc1ccc(C(=O)NCC2(N3CCOCC3)CCCCC2)cc1	inactive: -1.4%
O=C(NCC1(N2CCCCC2)CCCCC1)c1ccc(F)cc1	inactive: -0.594%
